Test results as given in US7151165B2, “Antibodies immunospecific for a novel human G-protein coupled receptor family” (priority 1999, dated 2006).

Protein sequences, listed by entry. Tags and fused reporters are not part of them.
UniProt Q9GZQ4, whole entry A395T: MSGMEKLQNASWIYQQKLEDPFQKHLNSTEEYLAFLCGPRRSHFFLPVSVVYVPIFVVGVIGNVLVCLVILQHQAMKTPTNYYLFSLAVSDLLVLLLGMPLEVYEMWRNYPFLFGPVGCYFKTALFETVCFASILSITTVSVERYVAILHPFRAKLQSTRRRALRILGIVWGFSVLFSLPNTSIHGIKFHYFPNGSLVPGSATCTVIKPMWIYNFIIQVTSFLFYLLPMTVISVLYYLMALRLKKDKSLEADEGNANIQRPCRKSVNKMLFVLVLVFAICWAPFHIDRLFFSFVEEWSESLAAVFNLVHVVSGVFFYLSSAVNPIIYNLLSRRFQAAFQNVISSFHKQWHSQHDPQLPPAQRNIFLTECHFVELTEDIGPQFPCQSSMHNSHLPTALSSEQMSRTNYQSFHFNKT

Molecular target: T1, IGS4A (Homo sapiens, UniProt Q9GZQ4, A395T)
T1 construct: expressed in transfected cells; host or cells: CHOGα16 (CHO cells stably expressing Gα16, Molecular Devices), transfected with IGS4-pcDNA3.1
Assay: FLIPR intracellular calcium mobilisation in CHOGα16-IGS4 cells (IGS4A)
Assay type: cell-based
Conditions: read-out: EC50 for IGS4A; molar value printed beside log EC50
Experimental: A. Method and Materials for IGS-4 Transfected CHOGα16IGS4 cells.
The following materials were used in the experiments: Vector containing IGS4-DNA sequence (IGS4-pcDNA3.1); SuperFect Transfection Reagent (Qiagen): Nut-Mix F12 (Gibco) with 10% FCS, 0.028 mg/ml Gentamycin (Gibco); 0.22 mg/ml Hygromycin (Gibco).
Materials used for clone selection: Nut-Mix F12 with 10% FCS; 0.028 mg/ml Gentamycin; 0.22 mg/ml Hygromycin and 0.55 mg/ml Geneticin (Gibco).
The following method was applied: Transfection with SuperFect Transfection Reagent was carried out as described by the manufacturer (Qiagen). Cells were plated in 24-well plates to 50% confluence. Per well […] plasmid-DNA with 1 μl SuperFect Transfection Reagent was added. After 24 hours the medium was changed and transfected cell clones were selected by Geneticin-containing selection-medium. […]
The method was worked as follows: The 2 mM stock of dye was mixed with an equal volume of 20% (w/v) pluronic acid immediately before adding to the loading-Buffer. […] In order to calculate the, background fluorescence, some wells were not dye loaded. The background fluorescence in these wells results from autofluorescence of the cells. After dye loading, cell were washed three times with Wash-Buffer (automated Denley cell washer) to reduce the basal fluorescence to 20.000–25.000 counts above background. […]

Substance neuromedin U-25 has an EC50 of 658 nM.
